Binding of CDR-mutated scFvs to a peptide of the spike HR2 region

Binding partner: SARS-CoV-2 spike HR2 peptide, sequence PDVDLGDISGINAS.

Each scFv is VH, the linker GGGGSGGGGSGGGGS, VL, as in the parent Ab-14, and differs from it in the CDRs of the light chain only.
VH: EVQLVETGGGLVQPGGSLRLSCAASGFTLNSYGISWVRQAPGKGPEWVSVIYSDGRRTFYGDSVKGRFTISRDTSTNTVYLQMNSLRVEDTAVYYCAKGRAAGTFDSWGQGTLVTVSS
VL: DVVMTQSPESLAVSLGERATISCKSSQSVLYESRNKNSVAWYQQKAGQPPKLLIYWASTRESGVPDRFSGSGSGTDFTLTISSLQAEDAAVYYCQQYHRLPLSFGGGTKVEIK

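The starting antibody came from a phage panning campaign against this peptide. These sequences belong to a second round, designed from the earlier measurements on random variants of the parent. Group labels follow the data file (Ctrl: baseline library sampled from a position-specific scoring matrix, with some repeated check sequences; En: ensemble of fine-tuned language models; GP: Gaussian process model; HC: hill climbing; Gen: genetic algorithm; Gibbs: Gibbs sampling; a sequence that several methods proposed may carry one label only). The scFvs were displayed on barcoded MATa yeast, the peptide on MATalpha yeast. Mating (16 h, 30 °C) was followed by selection of diploids and sequencing of their barcodes. Each replicate has its own calibration line, from reference interactions of the BCL2 family. Each pool was mated in six replicate cultures.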

Each variant's VL is given in full.
Values are log10 of the apparent Kd in nM; lower means stronger binding.
The mean shown is taken over the replicates in which the pair was detected.
"n.d." means that the variant was in the library but no mating with the target was seen in that replicate; the authors take this as a sign of poor binding, and no number exists.

VL,group,"replicates, log10 nM",mean log10 Kd (nM)
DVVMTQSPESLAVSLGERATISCKLSQLFYKESKNKNNVAWYQQKAGQPPKLLIYEMTTRGQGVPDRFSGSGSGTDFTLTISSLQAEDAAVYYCQQYDRLPLSFGGGTKVEIK,En_HC,0.50 0.30 -0.12 0.22 0.06 0.02,0.16
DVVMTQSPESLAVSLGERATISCKSSQGVLYENRNKNSVAWYQQKAGQPPKLLIYNARTRESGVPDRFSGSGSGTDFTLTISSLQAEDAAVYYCQQYHRLPLSFGGGTKVEIK,Ctrl,1.27 0.45 0.78 0.73 0.83 0.82,0.81
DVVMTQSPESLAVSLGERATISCKSIQSVIYESRMKNSVAWYQQKAGQPPKLLIYWASTREAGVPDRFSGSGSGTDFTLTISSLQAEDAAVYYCQQYHRLPLSFGGGTKVEIK,Ctrl,n.d. n.d. n.d. n.d. n.d. n.d.,n.d.
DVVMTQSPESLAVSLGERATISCHSSESVLYESRNKNSVAWYQQKAGQPPKLLIYNASTRESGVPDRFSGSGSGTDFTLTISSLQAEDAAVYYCQQYHRLPLQFGGGTKVEIK,GP_HC,1.42 1.58 1.54 2.64 2.26 2.03,1.91
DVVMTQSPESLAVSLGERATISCTISQVMNTLTRNTNNVAWYQQKAGQPPKLLIYDLQEREYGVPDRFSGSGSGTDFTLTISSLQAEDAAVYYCQQYFRLPLSFGGGTKVEIK,En_Gen,0.13 0.21 0.11 -0.20 -0.05 0.35,0.09
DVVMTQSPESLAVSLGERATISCKLSQSVLEERRNKYSVAWYQQKAGQPPKLLIYSASTRESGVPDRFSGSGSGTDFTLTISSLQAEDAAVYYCQQYHRLPLSFGGGTKVEIK,Ctrl,1.14 0.66 0.86 0.71 0.81 0.92,0.85
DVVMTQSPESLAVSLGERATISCKSSQSALYESRNYNSVAWYQQKAGQPPKLLIYWASTRESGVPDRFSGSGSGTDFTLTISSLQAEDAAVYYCQQYHRLPLSFGGGTKVEIK,Ctrl,1.96 n.d. 1.87 n.d. 2.08 2.23,2.03
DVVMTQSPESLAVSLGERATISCTLGASTLMESRNKNNVAWYQQKAGQPPKLLIYQMSTRESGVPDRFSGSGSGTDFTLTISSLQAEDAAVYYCQQYHRLPLSFGGGTKVEIK,En_HC,-0.23 -0.72 -0.53 -1.07 0.01 -1.22,-0.63
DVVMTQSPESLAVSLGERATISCTLAQGIYEGVRKSENVAWYQQKAGQPPKLLIYEASHVTDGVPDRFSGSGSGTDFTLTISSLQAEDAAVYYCQQYERLPLEFGGGTKVEIK,En_Gibbs,0.59 0.80 0.72 0.78 0.46 0.92,0.71
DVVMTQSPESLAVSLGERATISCKLSQSVLFWGHAINSVAWYQQKAGQPPKLLIYEMVTRENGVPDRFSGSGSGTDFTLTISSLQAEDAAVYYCQQYDRLPLSFGGGTKVEIK,En_HC,1.38 0.93 1.43 1.39 1.13 1.46,1.29
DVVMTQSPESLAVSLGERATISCKVSQSQLYESRNKNSVAWYQQKAGQPPKLLIYHASTRESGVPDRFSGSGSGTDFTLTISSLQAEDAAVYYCQQYHRLPLSFGGGTKVEIK,GP_Gen,0.17 0.00 0.02 -0.17 0.02 0.04,0.01
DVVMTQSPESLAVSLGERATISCKWIESVLYESTNKNSVAWYQQKAGQPPKLLIYWASTRESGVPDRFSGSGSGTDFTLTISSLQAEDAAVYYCQQYHRLPLSFGGGTKVEIK,Ctrl,1.74 1.90 2.09 2.79 2.34 2.38,2.21
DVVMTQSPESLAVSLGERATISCKYSQEVLEESRNKNSVAWYQQKAGQPPKLLIYNASTREEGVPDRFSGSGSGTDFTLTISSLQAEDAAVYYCQQYHRLPLSFGGGTKVEIK,GP_Gibbs,0.14 -0.19 -0.09 -0.24 -0.05 0.10,-0.05
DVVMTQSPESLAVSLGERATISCKLPQSWLYESRNKNSVAWYQQKAGQPPKLLIYNASTREDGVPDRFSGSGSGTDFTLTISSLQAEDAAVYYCQQYHRLPLSFGGGTKVEIK,GP_Gen,0.07 -0.07 -0.14 -0.18 -0.02 0.10,-0.04
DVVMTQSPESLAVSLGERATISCQSSQSVLYESRNCNSVAWYQQKAGQPPKLLIYNASTRESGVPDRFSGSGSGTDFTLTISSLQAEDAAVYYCQQYHRLPLSFGGGTKVEIK,Ctrl,0.98 1.00 0.93 0.65 1.23 1.45,1.04
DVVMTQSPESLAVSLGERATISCKLSQSVLYESRNKNSVAWYQQKAGQPPKLLIYQASTRESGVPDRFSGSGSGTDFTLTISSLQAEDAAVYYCQQHHRLPLSFGGGTKVEIK,Ctrl,1.84 1.56 2.18 2.12 1.95 2.41,2.01
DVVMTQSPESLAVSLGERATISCMISQLYNMGQFAINSVAWYQQKAGQPPKLLIYQASLRCNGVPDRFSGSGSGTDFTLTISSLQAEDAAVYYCQQYDRLPLTFGGGTKVEIK,En_Gen,n.d. n.d. 2.11 n.d. 2.60 n.d.,2.36
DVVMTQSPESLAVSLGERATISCKSSFSYLYESENKNSVAWYQQKAGQPPKLLIYEASQRESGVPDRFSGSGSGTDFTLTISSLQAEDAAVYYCQQYHRLPLSFGGGTKVEIK,GP_HC,0.03 0.22 0.14 -0.14 0.03 0.12,0.07
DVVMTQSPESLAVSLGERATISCKVSEFMRGLMSRKDSIAWYQQKAGQPPKLLIYDNTTRNNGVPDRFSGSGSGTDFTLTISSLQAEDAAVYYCQQYDRLPLSFGGGTKVEIK,En_Gen,1.20 1.53 1.40 1.57 1.14 2.00,1.47
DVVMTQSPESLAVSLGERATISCKSSISYLYASRNKNSVAWYQQKAGQPPKLLIYEASTRESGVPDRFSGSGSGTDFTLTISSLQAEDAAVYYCQQYHRLPLSFGGGTKVEIK,GP_HC,-0.17 -0.31 -0.27 -0.40 -0.44 -0.04,-0.27
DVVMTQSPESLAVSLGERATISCMISEVMNTMTRHGNNVAWYQQKAGQPPKLLIYDLTEREDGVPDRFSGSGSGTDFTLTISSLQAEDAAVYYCQQYFRLPLSFGGGTKVEIK,En_Gen,1.39 1.12 0.60 0.55 0.51 0.95,0.85
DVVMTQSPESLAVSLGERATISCTISNSFMMENQFKNSVAWYQQKAGQPPKLLIYQASTREDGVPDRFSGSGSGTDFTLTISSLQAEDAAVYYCQCYDRLPLSFGGGTKVEIK,En_HC,n.d. 1.22 n.d. n.d. n.d. 0.99,1.10
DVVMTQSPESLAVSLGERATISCSIQNLGMVPSVWKNSIAWYQQKAGQPPKLLIYDVTIVEEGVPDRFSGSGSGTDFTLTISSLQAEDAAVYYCQQYSRLPLLFGGGTKVEIK,En_Gibbs,1.10 0.65 0.78 0.97 -0.12 0.46,0.64

Extract of 3 entries:

VL	group	replicates, log10 nM	mean log10 Kd (nM)
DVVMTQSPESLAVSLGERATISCSIQNLGMVPSVWKNSIAWYQQKAGQPPKLLIYDVTIVEEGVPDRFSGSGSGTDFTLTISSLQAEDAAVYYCQQYSRLPLLFGGGTKVEIK	En_Gibbs	1.10 0.65 0.78 0.97 -0.12 0.46	0.64
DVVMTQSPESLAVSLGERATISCTISNSFMMENQFKNSVAWYQQKAGQPPKLLIYQASTREDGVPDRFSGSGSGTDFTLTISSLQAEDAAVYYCQCYDRLPLSFGGGTKVEIK	En_HC	n.d. 1.22 n.d. n.d. n.d. 0.99	1.10
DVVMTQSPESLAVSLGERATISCKWIESVLYESTNKNSVAWYQQKAGQPPKLLIYWASTRESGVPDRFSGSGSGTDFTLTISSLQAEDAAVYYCQQYHRLPLSFGGGTKVEIK	Ctrl	1.74 1.90 2.09 2.79 2.34 2.38	2.21

The range of this assay differs from that of the first round, and the authors advise against merging the two.
The parent sequence was in this pool as ten entries: three were never detected, three once, and four in most replicates, with averages from 0.34 to 2.37.
Three control strains display no target. For all light chain designs, 4% of the pairings with them gave a signal, with a median of 2.64 and one signal in twenty below 1.59, so weak values seen in few replicates may be background.
In the paper, a design with two or fewer of six values counts as a poor binder.

From the AlphaSeq antibody data of Li et al. 2023 (doi:10.1038/s41467-023-39022-2), copy in the FLAb collection.